Results: patent US9434724B2, “Quinuclidines for modulating alpha 7 activity” (priority 2014, dated 2016)

Chains of the proteins cited; added tags and fusions are not shown. Residues count along the entry.
UniProt Q05941, 23-502 limits assumed: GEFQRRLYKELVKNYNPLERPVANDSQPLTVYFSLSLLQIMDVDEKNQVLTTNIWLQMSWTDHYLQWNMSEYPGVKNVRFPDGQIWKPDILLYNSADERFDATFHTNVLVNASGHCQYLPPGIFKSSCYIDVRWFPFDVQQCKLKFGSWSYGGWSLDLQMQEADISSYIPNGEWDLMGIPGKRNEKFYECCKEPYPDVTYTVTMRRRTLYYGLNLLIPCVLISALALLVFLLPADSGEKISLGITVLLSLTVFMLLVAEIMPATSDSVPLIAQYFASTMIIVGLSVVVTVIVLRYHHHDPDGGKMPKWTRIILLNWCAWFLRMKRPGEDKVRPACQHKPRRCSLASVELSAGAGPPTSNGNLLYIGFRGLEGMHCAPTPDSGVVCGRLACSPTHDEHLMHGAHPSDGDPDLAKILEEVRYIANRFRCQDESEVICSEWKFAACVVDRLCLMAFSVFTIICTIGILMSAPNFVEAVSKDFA

Target: rat brain nicotinic receptor (α7 NAChR) (Rattus norvegicus (Rat), UniProt Q05941)
Assay type: binding

| Structure (SMILES) | Ki [nM] | IC50 [nM] |
| --- | --- | --- |
| N#Cc1ccc2c(C(=O)OCC34CCN(CC3)CC4)c[nH]c2c1 [Compound 28, quinuclidin-4-ylmethyl 6-cyano-1H-indole-3-carboxylate] | 796 | – |
| O=C(OCC12CCN(CC1)CC2)c1c[nH]c2cc(Cl)cc(Br)c12 [Compound 42, quinuclidin-4-ylmethyl 4-bromo-6-chloro-1H-indole-3-carboxylate] | – | 1100 |
